## Apparent affinities of Ab-95 variants for a coronavirus HR2 peptide

Target: peptide PDVDLGDISGINAS, taken from heptad repeat 2 (HR2) of SARS-CoV-2 spike.

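Phage display of a naive human antibody library on the peptide gave the parent. The library (AAYL52) carries one to three amino acid substitutions per variant, with no insertions or deletions. The assay is AlphaSeq: two haploid yeast populations carry antibody and antigen on their surface. Binding brings cells together so that they mate, and sequencing counts the barcode pairs among the diploids. Scores were corrected for input abundance and mapped to Kd with protein pairs of known affinity run in the same pool. Mating was done three times.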

Each scFv is VH, three GGGGS repeats, VL, as in the parent Ab-95, and differs from it in the CDRs of the light chain only.
VH: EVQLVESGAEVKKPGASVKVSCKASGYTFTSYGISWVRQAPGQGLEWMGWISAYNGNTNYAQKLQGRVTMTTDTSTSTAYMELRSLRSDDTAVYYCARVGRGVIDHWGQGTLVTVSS
VL: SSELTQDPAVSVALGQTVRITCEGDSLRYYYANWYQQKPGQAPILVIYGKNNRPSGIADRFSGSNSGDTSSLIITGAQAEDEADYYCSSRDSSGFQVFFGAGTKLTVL

Each variant is given by its three light chain CDRs, as the data file delimits them; those of the parent are EGDSLRYYYAN, GKNNRPS, SSRDSSGFQVF.
Every variant below is changed at S93 of the VL (sequential numbering).
Each Kd is an estimate from the mating assay, the geometric mean of the replicates in which the pair was seen; lower is stronger.
"no signal" means that the variant was in the library but no mating with the target was seen in any replicate; the authors take this as a sign of poor binding, and no number exists.
The list is sorted by this average, lowest first, undetected variants last.
For reference, the parent read 200 nM as the reference entry and 180 nM as a member of this library.

With EGDSLRYYYAN | GKNWRPS | SSQDSIGFQVF the result was 31 nM (3 of 3 replicates). For HGDSLRHYYAN | GKNNRPS | SSRDSGGFQVF, the assay gave 78 nM (3 of 3 replicates). For EGDSLRYYYAN | GKNMRPS | SSRDSRGYQVF, the assay gave 230 nM (3 of 3 replicates). The variant QGDSLRYYYAN | GKNNRPS | SSRDSPGFQVP showed 230 nM (3 of 3 replicates). The variant EGDSLRYYYAN | GKNNRPS | SSLDSAGFQVF gave 320 nM (3 of 3 replicates). With EGDSLRYYYAN | GPNNRPS | SSRDSKGFQVF the result was 450 nM (3 of 3 replicates). With EGDSLRYYYAN | GKNNRPS | SSRDKTGFQVF the result was 540 nM (3 of 3 replicates). The variant EGSSLRYYYAN | GKNNRPS | HSRDSHGFQVF showed 540 nM (3 of 3 replicates). The variant EGGSLRYYYAN | GKNTRPS | SSRDSRGFQVF showed 680 nM (3 of 3 replicates).

The variant EGDSLRYYYAN | GKNNRMS | SSRDSRGFQWF gave 840 nM (3 of 3 replicates). With EGDSLRYYYAN | GVNNRPS | SSRDSGGFVVF the result was 940 nM (3 of 3 replicates). The variant EGDSLRYYRAN | GKNNRQS | SSRDSQGFQVF gave 1.0 µM (3 of 3 replicates). The variant EGDSLRYYYAN | HKNNRGS | SSRDSNGFQVF gave 1.1 µM (1 of 3 replicates). For EGDSLKYYYSN | GKNNRPS | SSRDSIGFQVF, the assay gave 1.2 µM (3 of 3 replicates). With EGDSARYYYAN | GKNNRPS | SSRDSIGFQGF the result was 1.2 µM (1 of 3 replicates). The variant EGDSLRYYYAN | GKNNRPS | SIRDSNGFQVF gave 1.7 µM (1 of 3 replicates). The variant EGDSLRYYKAN | GKNTRPS | SSRDSEGFQVF showed 1.8 µM (3 of 3 replicates). The variant EGDSLRYYYAN | GKDNRPS | SSRDSPGFQVF gave 2.7 µM (1 of 3 replicates).

The variant EGDSLRYYYAN | GKNNRPS | SSLTSTGFQVF gave 3.0 µM (3 of 3 replicates). The variant EGDSLRYYYAN | GMNARPS | SSRDSDGFQVF showed 3.1 µM (3 of 3 replicates). The variant EGDSLRYYYAN | GKNNRPS | GSRDSYIFQVF gave 4.8 µM (2 of 3 replicates). The variant EGDSLRYYYAN | GKNNWPS | SSRDNIGFQVF showed 5.1 µM (2 of 3 replicates). With EADSLRYYYAN | GKNNRPS | SSRDSYGFQWF the result was 5.4 µM (3 of 3 replicates). For EGDSLRYYYAN | EKNNRPS | SSRDSFGFQVF, the assay gave 5.6 µM (2 of 3 replicates). With EGQSLRYYYAN | GKNNRPS | SMRDSTGFQVF the result was 7.3 µM (3 of 3 replicates). For EGDSRRYYYAN | GKNNRPS | SSRDSCGVQVF, the assay gave 7.7 µM (2 of 3 replicates). For QGDSLRYYYAN | GKNNRPS | SRRDSAGFQVF, the assay gave 7.9 µM (1 of 3 replicates).

For EGDSQRYYYAN | GKNNRPS | SSVDSPGFQVF, the assay gave 13 µM (1 of 3 replicates). The variant EGDSLRYYYAN | MKNNRPS | SSRDSRGFQVF gave 13 µM (3 of 3 replicates). For EGDSLRYYYAN | GKNNRPS | SSIDSIGFGVF, the assay gave 14 µM (1 of 3 replicates). The variant EGDSLRYYYAN | IKNNRPS | SSRDSRGFQVF gave 17 µM (1 of 3 replicates). The variant EGDRLRMYYAN | GKNNRPS | SSRDSCGFQVF gave 18 µM (3 of 3 replicates). The variant EGDSFRKYYAN | GKNNRPS | SSRDSWGFQVF gave 32 µM (1 of 3 replicates). With EGDSLRYYYAN | GKNNPPS | SSRDSEGLQVF the result was 36 µM (3 of 3 replicates). The variant EGDSLRYYYAN | GKNNRPS | STRDSLGFQVV gave 42 µM (3 of 3 replicates). With EGDSLRYYYAW | GKNYRPS | SSRDSQGFQVF the result was 44 µM (1 of 3 replicates).

With EEDSLRYYYAN | GKNNRPS | STRDSYGFQVF the result was 47 µM (3 of 3 replicates). The variant EGDSLRYYYAN | GKNPRPS | KSRDSMGFQVF showed 330 µM (1 of 3 replicates). The variant EGDSLRYYYAN | GKCNRPS | SSRKSNGFQVF gave no signal (0 of 3 replicates). The variant EGDSLRYYYAN | GKNNRPS | SSRDSFGFQVQ showed no signal (0 of 3 replicates). For EGDSLRYYYLN | GKNNRPS | SSRDSMGFQVF, the assay gave no signal (0 of 3 replicates). The variant EGDSWRYYYAN | GKNNMPS | SSRDSLGFQVF showed no signal (0 of 3 replicates). The variant EGDSLRYYYAN | GKNNIPS | SSRDSDGFQVS showed no signal (0 of 3 replicates). The variant EGDDLRYYYAN | GKNNRPS | SSRDSRGMQVF gave no signal (0 of 3 replicates).

Excerpt, the first 7 entries:

EGDSLRYYYAN | GKNWRPS | SSQDSIGFQVF: 31 nM (3 of 3 replicates).
HGDSLRHYYAN | GKNNRPS | SSRDSGGFQVF: 78 nM (3 of 3 replicates).
EGDSLRYYYAN | GKNMRPS | SSRDSRGYQVF: 230 nM (3 of 3 replicates).
QGDSLRYYYAN | GKNNRPS | SSRDSPGFQVP: 230 nM (3 of 3 replicates).
EGDSLRYYYAN | GKNNRPS | SSLDSAGFQVF: 320 nM (3 of 3 replicates).
EGDSLRYYYAN | GPNNRPS | SSRDSKGFQVF: 450 nM (3 of 3 replicates).
EGDSLRYYYAN | GKNNRPS | SSRDKTGFQVF: 540 nM (3 of 3 replicates).

Nonspecific signal, from three strains lacking the peptide, appeared in 28% of pairings of library AAYL52, centred on 8.2 µM (5% of these signals below 800 nM); values are not corrected for it.

The measurements come from Engelhart et al. 2022 (doi:10.1038/s41597-022-01779-4) through the FLAb antibody collection.